The chains behind the UniProt entries cited, without tags or fusion partners. Residues count along the entry.
UniProt P08648, 42-1049, chain 1 of 2: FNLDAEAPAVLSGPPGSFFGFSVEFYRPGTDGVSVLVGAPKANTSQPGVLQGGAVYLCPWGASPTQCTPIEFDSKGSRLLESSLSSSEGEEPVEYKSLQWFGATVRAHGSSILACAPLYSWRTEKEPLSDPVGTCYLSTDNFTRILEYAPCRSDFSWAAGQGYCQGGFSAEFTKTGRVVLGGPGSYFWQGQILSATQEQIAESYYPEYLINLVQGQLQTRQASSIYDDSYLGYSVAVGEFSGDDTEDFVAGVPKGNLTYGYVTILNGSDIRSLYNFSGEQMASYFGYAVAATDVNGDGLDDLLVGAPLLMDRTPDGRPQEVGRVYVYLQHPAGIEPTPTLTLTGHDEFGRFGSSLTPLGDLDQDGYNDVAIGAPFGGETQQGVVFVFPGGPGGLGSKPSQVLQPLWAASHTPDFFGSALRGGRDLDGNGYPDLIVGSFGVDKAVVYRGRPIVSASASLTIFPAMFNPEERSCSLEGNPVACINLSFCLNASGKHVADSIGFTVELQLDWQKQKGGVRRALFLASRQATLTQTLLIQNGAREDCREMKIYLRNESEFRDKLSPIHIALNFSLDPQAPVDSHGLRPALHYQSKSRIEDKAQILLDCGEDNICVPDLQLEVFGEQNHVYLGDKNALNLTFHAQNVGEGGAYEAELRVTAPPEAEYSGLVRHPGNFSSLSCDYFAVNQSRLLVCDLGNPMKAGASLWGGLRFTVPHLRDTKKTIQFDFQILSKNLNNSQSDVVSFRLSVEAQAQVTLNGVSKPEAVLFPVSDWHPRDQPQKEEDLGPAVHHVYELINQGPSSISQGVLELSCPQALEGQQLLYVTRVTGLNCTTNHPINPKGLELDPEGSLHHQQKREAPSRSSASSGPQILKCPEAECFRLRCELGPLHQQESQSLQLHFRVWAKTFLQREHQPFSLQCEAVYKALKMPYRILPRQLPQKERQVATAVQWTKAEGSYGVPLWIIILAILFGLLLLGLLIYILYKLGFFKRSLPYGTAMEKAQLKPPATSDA
UniProt P06756, 31-1048, chain 1 of 2: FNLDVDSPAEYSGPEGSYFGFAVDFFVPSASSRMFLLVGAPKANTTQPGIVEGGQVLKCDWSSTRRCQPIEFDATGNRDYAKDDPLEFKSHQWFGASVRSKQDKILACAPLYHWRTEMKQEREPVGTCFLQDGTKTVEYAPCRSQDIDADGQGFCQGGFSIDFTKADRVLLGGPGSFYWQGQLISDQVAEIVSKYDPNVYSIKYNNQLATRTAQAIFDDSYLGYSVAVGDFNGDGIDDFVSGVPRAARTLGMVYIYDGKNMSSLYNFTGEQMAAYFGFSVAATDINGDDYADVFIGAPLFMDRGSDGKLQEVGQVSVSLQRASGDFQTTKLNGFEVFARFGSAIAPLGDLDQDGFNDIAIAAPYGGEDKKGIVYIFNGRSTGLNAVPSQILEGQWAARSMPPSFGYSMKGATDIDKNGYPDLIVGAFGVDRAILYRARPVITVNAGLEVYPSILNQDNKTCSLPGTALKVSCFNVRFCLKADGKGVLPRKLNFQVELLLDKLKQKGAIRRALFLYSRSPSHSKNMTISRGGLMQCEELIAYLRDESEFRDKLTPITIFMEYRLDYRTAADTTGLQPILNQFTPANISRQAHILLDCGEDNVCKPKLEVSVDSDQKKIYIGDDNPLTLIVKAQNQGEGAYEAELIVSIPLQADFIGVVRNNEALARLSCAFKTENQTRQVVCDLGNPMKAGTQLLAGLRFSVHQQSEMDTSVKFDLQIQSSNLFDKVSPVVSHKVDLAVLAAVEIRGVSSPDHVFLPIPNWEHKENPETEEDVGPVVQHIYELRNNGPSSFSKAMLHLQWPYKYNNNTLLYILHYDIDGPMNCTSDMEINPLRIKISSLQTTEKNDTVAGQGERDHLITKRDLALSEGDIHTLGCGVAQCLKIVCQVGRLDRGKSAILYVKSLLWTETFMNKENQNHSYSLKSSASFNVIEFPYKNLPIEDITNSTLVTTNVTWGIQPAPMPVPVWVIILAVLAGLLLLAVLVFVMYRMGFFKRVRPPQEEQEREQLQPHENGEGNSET

In publication PMC9719539, “Single-molecule characterization of subtype-specific β1 integrin mechanics” (Nature Communications, 2022):

Columns and labels:
[1] = target: integrin α5β1, intact, on wild type K562 cells (human (endogenous in K562)) (UniProt P08648); experiment: flow cytometry on cells
[2] = target: integrin αVβ1, intact, on K562 αVβ1 stable transfectants (human) (UniProt P06756); experiment: flow cytometry on cells; intact integrins on K562 cells in L15 medium with 1% BSA, without Mn2+, no washing; titrator's binding read as enhancement of binding of fluorescent 9EG7 Fab (10 nM); EC50 of a three-parameter dose-response fit taken as Kd

Kd [1]: 0.93 µM | Kd [2]: 10 µM
Substance: Fn3 9-10 (macromolecule fragment of fibronectin) (domain or fragment)
